Values quoted from earlier work in paper PMC12037675, “Design of self-emulsifying oral delivery systems for semaglutide: reverse micelles versus hydrophobic ion pairs” (Drug Delivery and Translational Research, 2024).

Conditions: hydrophobic ion pairs; cited from earlier work
Excerpt: Administration of therapeutic (poly)peptides is still widely limited to the parenteral route even though oral administration is both favored from a patient as well as from a commercial point of view. So far mostly endocrine disorders and in particular diabetes have been targeted by oral (poly)peptide drug delivery. Administration of (poly)peptides such as insulin or GLP-1 analogues via the oral pathway, however, is challenging because of the inactivation of these therapeutic agents under harsh pH conditions, degradation by proteolytic enzymes, thiol/disulfide exchange reaction ... || It was therefore the aim of this study to evaluate the potential of reverse micelles versus HIP for the formation of lipophilic complexes to be incorporated into SEDDS. Among GLP-1 analogues semaglutide was chosen as model drug, since a marketed oral formulation (Rybelsus®) is already available. Besides its use for treatment of type 2 diabetes, this peptide has recently gained huge attention as anti-obesity drug.

insulin
Improvement in oral bioavailability by ion pairing: up to 8 fold
